Assay: plasma content (bioavailability) after administration
Settings: after the administration

CC(C)Cc1ccc(C(C)C(=O)O)cc1 (stereo not shown) [Ibuprofen, 2-(4-isobutyl-phenyl)-propionic acid]
time at which bioavailability falls down: 3 h

— patent US4268685A, “Salicylamide esters and related pharmaceutical composition” (Neopharmed S.p.A., priority 1979, dated 1981)
